Reference: ChEMBL document CHEMBL1795334, “Towards predictive inhibitor design for the EGFR autophosphorylation activity” (Eur J Med Chem, 2008)

Chains of the proteins cited; added tags and fusions are not shown.
UniProt P00533, whole entry: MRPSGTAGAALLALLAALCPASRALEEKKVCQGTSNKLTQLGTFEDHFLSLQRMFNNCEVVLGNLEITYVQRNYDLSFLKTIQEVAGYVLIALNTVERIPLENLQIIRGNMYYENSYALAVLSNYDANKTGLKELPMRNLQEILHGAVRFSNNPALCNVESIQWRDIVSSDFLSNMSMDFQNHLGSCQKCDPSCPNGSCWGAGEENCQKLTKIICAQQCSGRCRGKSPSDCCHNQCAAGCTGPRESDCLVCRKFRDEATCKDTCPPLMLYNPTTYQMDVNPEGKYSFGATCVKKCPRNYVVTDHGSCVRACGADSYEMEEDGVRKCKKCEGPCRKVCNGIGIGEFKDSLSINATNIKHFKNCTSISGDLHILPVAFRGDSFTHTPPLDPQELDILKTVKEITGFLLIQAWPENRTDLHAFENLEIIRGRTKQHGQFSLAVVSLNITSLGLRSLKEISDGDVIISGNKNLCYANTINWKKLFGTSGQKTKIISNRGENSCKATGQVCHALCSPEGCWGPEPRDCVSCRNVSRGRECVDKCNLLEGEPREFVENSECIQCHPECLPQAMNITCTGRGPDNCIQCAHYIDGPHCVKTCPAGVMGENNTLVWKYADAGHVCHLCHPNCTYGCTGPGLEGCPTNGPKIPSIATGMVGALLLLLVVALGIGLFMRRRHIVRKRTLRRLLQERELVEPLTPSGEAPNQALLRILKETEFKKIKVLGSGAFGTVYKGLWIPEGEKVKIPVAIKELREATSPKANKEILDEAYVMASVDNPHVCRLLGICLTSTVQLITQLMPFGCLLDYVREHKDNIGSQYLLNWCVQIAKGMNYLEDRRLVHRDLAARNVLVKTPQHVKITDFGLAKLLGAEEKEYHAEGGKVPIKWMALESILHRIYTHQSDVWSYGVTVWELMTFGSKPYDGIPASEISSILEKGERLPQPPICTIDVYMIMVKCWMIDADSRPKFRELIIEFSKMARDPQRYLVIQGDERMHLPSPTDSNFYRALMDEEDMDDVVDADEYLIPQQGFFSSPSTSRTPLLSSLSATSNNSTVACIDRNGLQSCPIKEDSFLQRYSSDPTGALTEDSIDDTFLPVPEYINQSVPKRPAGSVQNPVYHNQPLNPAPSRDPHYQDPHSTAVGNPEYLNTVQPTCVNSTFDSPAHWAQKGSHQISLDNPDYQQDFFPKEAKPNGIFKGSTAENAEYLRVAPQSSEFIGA

The compounds below were run against Epidermal growth factor receptor (Homo sapiens, UniProt P00533) (assay: Inhibition autophosphorylation of EGFR in human DiFi cells after 2 hrs by ELISA).
Format: cell-based
`COc1cc2ncc(C#N)c(Nc3ccc(F)c(Cl)c3)c2cc1OC` showed an IC50 of 537 nM. `COc1cc2ncc(C#N)c(Nc3cccc(C(F)(F)F)c3)c2cc1OC` was tested, and the IC50 was 1450 nM. For `COc1cc2ncc(C#N)c(Nc3cccc(N(C)C)c3)c2cc1OC`, the IC50 was 851 nM. In the case of `COc1cc2ncc(C#N)c(Nc3cccc([N+](=O)[O-])c3)c2cc1OC`, the IC50 is reported as 871 nM. Compound `COc1cc2ncc(C#N)c(Nc3ccc(F)c(C(F)(F)F)c3)c2cc1OC` has an IC50 of 158 nM. In the case of `COc1cc2ncc(C#N)c(Nc3ccccc3C(C)C)c2cc1OC`, the IC50 is reported as 363 nM. `COc1cc2ncc(C(N)=O)c(Nc3cccc(Br)c3)c2cc1OC` showed an IC50 of 15100 nM. `COc1cc2ncc(C#N)c(Nc3ccc(Br)cc3)c2cc1OC` was tested, and the IC50 was 6610 nM. `COc1cc2ncc(C#N)c(Nc3cc(Cl)ccc3O)c2cc1OC` gave an IC50 of 17000 nM. For `COc1ccc(Nc2c(C#N)cnc3cc(OC)c(OC)cc23)cc1OC`, the IC50 was 50100 nM.
